Reference: article PMC6416464 (Drug Metabolism Letters, 2018)

By UniProt entry, the sequences of proteins in these tests, tags left out.
UniProt P05177, whole entry: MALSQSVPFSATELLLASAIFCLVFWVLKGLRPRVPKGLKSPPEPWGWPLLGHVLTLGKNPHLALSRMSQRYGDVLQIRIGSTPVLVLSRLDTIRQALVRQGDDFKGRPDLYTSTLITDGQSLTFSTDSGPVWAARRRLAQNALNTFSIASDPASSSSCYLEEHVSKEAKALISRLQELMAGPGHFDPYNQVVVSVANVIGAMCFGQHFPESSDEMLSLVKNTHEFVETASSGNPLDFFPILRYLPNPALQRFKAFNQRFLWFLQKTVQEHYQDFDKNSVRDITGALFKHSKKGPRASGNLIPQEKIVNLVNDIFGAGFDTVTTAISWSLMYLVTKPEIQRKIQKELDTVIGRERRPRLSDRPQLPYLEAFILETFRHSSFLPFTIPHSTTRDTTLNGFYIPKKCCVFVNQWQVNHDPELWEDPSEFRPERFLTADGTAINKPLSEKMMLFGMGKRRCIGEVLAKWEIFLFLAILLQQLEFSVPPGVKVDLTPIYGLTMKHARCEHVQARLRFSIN

Molecular target: CYP1A2 (Homo sapiens, UniProt P05177)
Test: CYP inhibition in human liver microsomes, CYP1A2
Conditions: inhibitor 10 µM, HLM, NI: No Inhibitin

CCCSc1ccc2nc(NC(=O)OC)[nH]c2c1 [Albendazole, albendazole, reference compound]
% Inhibition of Control Activity CYP1A2: 35.54%
